Data published in patent publication US20200345863A1, “LIGAND-DRUG-CONJUGATE COMPRISING A SINGLE MOLECULAR WEIGHT POLYSARCOSINE” (priority 2017, published 2020).

Test: Hydrophobic interaction chromatography (HIC), apparent hydrophobicity of conjugates
Assay type: physicochemical
Details: Tosoh TSK-GEL BUTYL-NPR column, 25° C., gradient 0% B to 100% B in 10 min

## Human Albumin
  HIC retention time: 2.5 min
